Screening results: PubChem, several laboratories
HDAC3 inhib – inhibitors of human histone deacetylase 3; recombinant HDAC3, fluorogenic peptide/trypsin coupled, fluorescence; inhibition, % at 8.3 µM; 0.15% of 320,000 active; AID 2718; in the data active = inhibition above about 26%, passing the limit was not always enough; inconclusive = no clear call, values can overlap the other calls
MC4R barr agon – human MC4R agonism via beta-arrestin; U2OS MC4R beta-arrestin complementation, luminescence; percent of melanotan II response, DMSO zero; activation, % at 8.9 µM; 0.98% of 360,000 active; AID 540308;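 active = activation above a per-plate cutoff, the mean activation of sample wells on that plate plus 3 SD, cut at about 8% in these data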
MC4R antagonist – blocks human MC4R cAMP signaling; inhibition, % at 6.5 µM; AID 540295; MC4R-expressing cells, MTII-stimulated cAMP, LANCE TR-FRET; 0.48% of 360,000 active; P32245;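 active = inhibition above its plate's cutoff, the mean of tested wells on that plate plus 3 SD, cut at about 29% in these data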
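System: U2OS cells stably expressing human melanocortin 4 receptor (MC4R). Reagent: Melanotan II challenge after compound preincubation. Doses: 6.5 µM. Times: 30-min compound, 1-h challenge, 1-h detection, room temperature. Measured by: TR-FRET with Eu-cAMP and labeled anti-cAMP, 671 nm. Replicates: singlicate.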
NALP1 inh – blocks the NALP1 inflammasome reconstituted in yeast; inhibition, % at 10 µM; 0.61% of 280,000 active; S. cerevisiae NALP1/ASC/caspase-1 growth, X-gal OD620, 72 h; in the data active = inhibition mostly above about 24%, no sharp cut-off; inactive = mostly below about 32%
Yeast UUG start – modulators of start codon recognition fidelity in yeast; S. cerevisiae UUG-firefly luciferase reporter, luminescence/redox ratio; activity score, % at 18.7 µM; hit rate 0.13% among 350,000; AID 602363;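 active = replicate mean at a twofold rise or more, about +100% in these data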;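 note: firefly luciferase made from a UUG start codon reports start codon fidelity; reporter light over untreated wells divided by growth signal over untreated wells; some hits fall short of that in this replicate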
ALR inh – blocks human ALR sulfhydryl oxidase activity | inhibition, % (test concentration not listed) | 3.8% of 290,000 active | AID 485317 | purified ALR, DTT oxidation, H2O2 HRP-luminol luminescence | P55789;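 active means mean and each replicate at 75% or more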;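 further: stock transfer was 7.5 nL into about 7.5 µL; 0% = neutral wells and 100% = wells with inactivated enzyme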
Numbers stand for hits; 0 = inactive; ? = inconclusive; - = no result given. Most compounds without a hit are left out; they make up all but 4.2% or so of the library.

SMILES	HDAC3 inhib	MC4R barr agon	MC4R antagonist	NALP1 inh	Yeast UUG start	ALR inh
Cc1c(N)cccc1N	0	0	0	-	0	86
Cc1c(N)cccc1[N+](=O)[O-]	0	0	0	-	0	0
COc1ccc(CN(C)C[C@@H]2Oc3ccc(NC(=O)CCC(F)(F)F)cc3CC(=O)N([C@H](C)CO)C[C@H]2C)cc1	-	-	-	-	0	-
COc1cc(/C=N\NC(=O)c2ccc(Cn3nc([N+](=O)[O-])c(Cl)c3C)o2)ccc1O	0	0	0	0	-	95
c1ccc(-c2nc(-c3ccco3)cs2)nc1	0	0	0	0	0	98
c1ccc(-c2nccc(-c3ccco3)n2)nc1	0	0	0	0	0	0
C[C@@H]1CCCCO[C@@H](CN(C)C(=O)NC2CCCCC2)[C@H](C)CN([C@@H](C)CO)C(=O)c2cc(NS(=O)(=O)c3cccs3)ccc2O1	-	-	-	-	0	-
COc1cccc(C=O)c1OCCCOc1cccc2cccnc12	0	0	0	29	0	97
COCC(=O)N(C)C[C@H]1Oc2ncc(-c3ccc(C#N)cc3)cc2C(=O)N([C@@H](C)CO)C[C@H]1C	-	-	-	-	0	-
O=C(Nc1ncc([N+](=O)[O-])s1)c1cccc([N+](=O)[O-])c1	0	0	0	0	0	98
C[C@@H]1CN([C@H](C)CO)C(=O)c2cccc(NS(=O)(=O)c3ccccc3)c2O[C@@H]1CN(C)C(=O)Nc1ccc(C(F)(F)F)cc1	-	-	-	-	0	-
COc1ccc(S(=O)(=O)N(C)C[C@H]2OCCCC[C@H](C)Oc3ccc(NC(=O)Nc4cccc5ccccc45)cc3C(=O)N([C@H](C)CO)C[C@H]2C)cc1	-	-	-	-	0	-
C[C@@H]1CN([C@@H](C)CO)C(=O)Cc2cc(N(C)C)ccc2O[C@H]1CN(C)S(=O)(=O)c1cccs1	-	-	-	-	0	-
COc1ccc(N2CCN(CCNC(=O)C3CCN(S(=O)(=O)c4cccs4)CC3)CC2)cc1	0	0	0	0	0	0
COc1ccc(N2CCN(CCNC(=O)CCNS(=O)(=O)c3cccs3)CC2)cc1	0	0	0	0	0	93
CC(C)C(NS(=O)(=O)c1cccs1)C(=O)NCCN1CCN(c2ccccc2)CC1 (stereo unspecified)	0	0	0	0	0	99
COc1ccc(N2CCN(CCNC(=O)CCS(=O)(=O)c3cccc4nsnc34)CC2)cc1	0	-	-	0	-	94
COc1ccc(OC)c(NC(=O)NCCN2CCN(c3ccccc3)CC2)c1	0	0	0	0	0	?
COc1ccc(N2CCN(CCNC(=O)Nc3ccc([N+](=O)[O-])cc3OC)CC2)cc1	0	0	0	0	0	89
COc1ccc(N2CCN(CCNS(=O)(=O)c3cccc4nsnc34)CC2)cc1	-	0	0	0	0	-
O=C(C[C@H]1C=C[C@@H](NC(=O)Nc2cc(F)ccc2F)[C@H](CO)O1)NCc1ccccn1	-	-	-	-	0	-
COC(=O)[C@@]1(CCS(=O)(=O)c2ccccc2)COC(c2ccc(OCCCO)cc2)=N1	-	-	-	-	0	-
CN(C)C(=O)C[C@@H]1CC[C@@H]2[C@H](COc3ccc(NC(=O)c4ccc(F)c(F)c4)cc3C(=O)N2C)O1	-	-	-	-	0	-
CCC(=O)N[C@@H]1CC[C@@H](CCn2cc(CN(C)C)nn2)O[C@H]1CO	-	-	-	-	0	-
Cc1ccc(C(=O)Nc2cccc([N+](=O)[O-])c2)cc1S(=O)(=O)Nc1ccc(C(=O)O)cc1	0	0	0	0	-	82
SMILES	HDAC3 inhib	MC4R barr agon	MC4R antagonist	NALP1 inh	Yeast UUG start	ALR inh
Cc1ccc(C(=O)Nc2ccccc2C(=O)O)cc1S(=O)(=O)NCc1ccccc1	0	0	0	0	-	0
Cc1ccc(C(=O)Nc2ccccc2C(=O)O)cc1S(=O)(=O)Nc1ccc(Br)cc1	0	0	0	-	-	98
CC(C)Sc1nc2ccccc2n2cnnc12	0	0	0	0	0	99
CC(Nc1nc2ccccc2n2cnnc12)c1ccccc1 (stereo unspecified)	0	0	0	0	0	0
C[C@@H]1CCCCO[C@H](CN(C)Cc2ccc3c(c2)OCO3)[C@@H](C)CN([C@H](C)CO)C(=O)c2cc(NS(=O)(=O)c3cccs3)ccc2O1	-	-	-	-	0	-
COc1ccccc1CNCC(=O)Nc1ccc(N2CCOCC2)cc1	0	0	0	0	0	99
COc1ccccc1NC(=O)Nc1ccc(N2CCOCC2)cc1	0	0	0	0	-	0
CC(C)c1ccc(/C=C/C(=O)NC(=S)NN2CCOCC2)cc1	0	0	0	0	0	80
